US7846903B2, “Type II cubic liquid crystal composition” (National Institute of Advanced Industrial Science and …, priority 2004, dated 2010)

Assay: Krafft temperature (TK) by DSC of amphiphilic compound/water system
Type: physicochemical
Settings: listed as 1-O-(3,7,11,15-tetramethylhexadecyl)-β-D-xylopyranoside
Protocol: Liquid crystals such as cubic liquid crystals formed by amphiphilic lipids are formed only at the Krafft temperature (TK), as determined depending on types and concentrations of amphiphilic lipids, or higher. Furthermore, liquid crystals generally undergo a phase transition upon changes in the concentration of the amphiphilic lipid or temperature. Accordingly, the maximal temperature (Tmax) at which a given liquid crystal structure can be stably present is also determined depending on lipid type and concentration of amphiphilic lipid. Thus, a liquid crystal structure formed by a given type of amphiphilic lipid is stably formed in the temperature range between TK and Tmax. […] The Krafft temperature of the amphiphilic lipid can be determined by a method known in the art, such as a method involving the preparation of such a phase diagram (e.g., Laughlin, R. G., “The Aqueous Phase Behavior of Surfactants,” 1994, Academic Press London, pp. 106-117). The Krafft temperature of a mixture of two or more amphiphilic lipids can be determined by the same method. […]
The Krafft temperatures of these amphiphilic compounds and mixtures thereof determined by the analyses described below are shown in Table 2-1 and Table 2-2. […]

TK (Krafft temperature): about 10 °C
SMILES: CC(C)CCCC(C)CCCC(C)CCCC(C)CCOC1OC[C@@H](O)C(O)C1O (stereo partly shown) [formula (13), reference compound]
